Source: ChEMBL document CHEMBL1130877, “The synthesis of new adenosine A3 selective ligands containing bioisosteric isoxazoles” (Bioorg Med Chem Lett, 1998)
pKi: −log10 of the molar value.

The chains behind the UniProt entries cited, without tags or fusion partners.
UniProt P30543, whole entry: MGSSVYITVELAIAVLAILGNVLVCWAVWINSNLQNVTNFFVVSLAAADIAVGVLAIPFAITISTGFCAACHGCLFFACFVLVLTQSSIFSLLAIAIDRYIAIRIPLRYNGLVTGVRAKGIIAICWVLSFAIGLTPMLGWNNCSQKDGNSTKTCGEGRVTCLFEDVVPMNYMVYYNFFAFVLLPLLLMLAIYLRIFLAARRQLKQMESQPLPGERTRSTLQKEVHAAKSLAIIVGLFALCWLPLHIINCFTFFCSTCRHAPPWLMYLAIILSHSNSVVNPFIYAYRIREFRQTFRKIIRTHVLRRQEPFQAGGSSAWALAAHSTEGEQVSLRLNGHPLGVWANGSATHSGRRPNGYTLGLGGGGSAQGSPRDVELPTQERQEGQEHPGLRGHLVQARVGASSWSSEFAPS
UniProt P25099, whole entry: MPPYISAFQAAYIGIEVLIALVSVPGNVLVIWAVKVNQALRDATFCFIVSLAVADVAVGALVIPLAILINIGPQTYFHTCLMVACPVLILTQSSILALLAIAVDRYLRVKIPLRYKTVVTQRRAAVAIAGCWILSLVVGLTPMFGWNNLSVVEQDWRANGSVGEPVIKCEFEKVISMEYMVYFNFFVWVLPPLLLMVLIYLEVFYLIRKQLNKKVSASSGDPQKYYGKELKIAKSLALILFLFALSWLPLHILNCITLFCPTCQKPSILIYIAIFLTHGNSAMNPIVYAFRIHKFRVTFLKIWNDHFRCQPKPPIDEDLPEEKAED

Tests used:
Adenosine receptor A2a = Adenosine receptor A2a (Rattus norvegicus, UniProt P30543); experiment: Binding affinity for adenosine A2a receptor as inhibition of 3[H]-CGS 21680 binding in rat striatum; format: tissue-based
Adenosine receptor A1 = Adenosine receptor A1 (Rattus norvegicus, UniProt P25099); experiment: Binding affinity for adenosine A1 receptor as inhibition of 3[H]-R-PIA binding in rat brain; format: tissue-based

Work on `CNC(=O)[C@H]1O[C@@H](n2cnc3c(NCc4cccc(I)c4)nc(Cl)nc32)[C@H](O)[C@@H]1O` [NAMODENOSON] yielded a pKi (Adenosine receptor A2a) of 7.25 and a pKi (Adenosine receptor A1) of 7.27.
